pEGFR data for 1 compound are collected here from US12258389B2, “Methods and compositions for inhibition of EGF/EGFR pathway in combination with tyrosine kinase inhibitors” (In3Bio Ltd., priority 2015, dated 2025).

The test system of the test is p-EGFR. Kind of test: Western blot, phosphorylated EGFR normalised to total EGFR, PC9 cells. It is filed as cell-based, human. Conditions: PC9, 24 h serum starvation and drug treatment; gefitinib 0.5 μM, Ab 1/2; Control = 100. As for the experimental part: Experiment 1: In a typical standard experiment, five T-75 flasks of the cell line under study were cultured to approximately 70% confluence, washed twice with PBS and grown o/n in serum-free medium. The serum-starved cells were then washed again and treated as follows:
Treatment was for about 15 minutes.
Experiment 2: In a second experiment anti-EGF was tested only at 1 to 2 dilution. […] Treatment was prolonged to about 2 hours in this experiment.
Both EGF and anti-EGF antibodies, which used in this project were derived from an immunization study in monkeys that received 4 immunizations of the rEGF-rP64k conjugate CIMAvax-EGF vaccine formulated with Montanide adjuvant. The vaccine and resulting anti-EGF antibodies were provided by Bioven (Europe) Ltd, Cruikshank Building North, Aberdeen Biotechnology, Craibstone Aberdeen, U.K. Scotland. Antibodies for Western blotting were purchased from Santa Cruz Biotechnologies (Palo Alto, CA).
Experiment 3: In a third experiment anti-EGF was tested only at 1 to 2 dilution. […] Treatment was prolonged to about 2 hours in this experiment. […] Both EGF and anti-EGF were provided by Bioven. Antibodies for Western blotting were purchased from Santa Cruz Biotechnologies (Palo Alto, CA).
Subsequently, three kind of experiments were performed:
C. […]
(In western blotting, separated proteins are transferred to a membrane and probed.)

For the compound `COc1cc2ncnc(Nc3ccc(F)c(Cl)c3)c2cc1OCCCN1CCOCC1` [Gefitinib], the pEGFR is listed as 25.5.
